The source of these data is paper PMC12216184 (Nature Communications, 2025).

Data set [1] deals with FOXO4^FH. Description: 1H,15N HSQC NMR titration of 15N-labeled FOXO4^FH (CSP). It counts as binding, human. As to conditions: 100 µM 15N-labeled FOXO4^FH, 1 or 2 equivalents of p53 fragment, 50 mM phosphate pH 7.5, 298 K.
For data set [2], the system named is FOXO4^FH – p53^1–94 complex. Description: NMR competition, displacement of FOXO4^FH from 15N-labeled p53^1–94 by DNA. Type of data set: binding, human. The settings on record: 50 µM 15N-labeled p53^1–94, 100 µM FOXO4^FH, 50 µM CTDSP2. Here is the method: All NMR spectra were recorded at 298 K either on a 700 MHz Bruker Avance III NMR spectrometer equipped with a TCI cryoprobe or on a 600 MHz Bruker Avance Neo NMR spectrometer equipped with a TXI 600S3 probehead at 298 K. All samples were in 50 mM NaH2PO4/Na2HPO4, pH 7.5 and 10 % D2O was added for the lock. Chemical shifts of the recombinant FOXO4-LRI were assigned using the following three-dimensional spectra: HNCACB, CBCA(CO)NH, (HN)N(CA)NNH, HN(NCA)NNH and (H)CC(CO)NH. […] Resonance assignments of FOXO4-LRI were submitted to the BRMB under the accession number 52458 (Supplementary Fig. 15).
Supplementary Figure 2. Characterization of FOXO4 - p53 interactions: (a) 1H,15N HSQC spectrum of 100 µM
15N-labeled FOXO4Cter in the absence (black) or in presence of one stoichiometric equivalent of unlabeled p531-94
(blue). (b) 1H,15N HSQC spectrum of 100 µM 15N-labeled FOXO4Nter in the absence (black) or presence of one
stoichiometric equivalent of unlabeled p531-94 (blue). (c) Overlay of 50 µM 15N-labeled FOXO4CR3 in the absence
50 µM 15N-labeled p531-94 in the absence (black) or presence of 100 µM FOXO4FH (orange) or 50 µM CTDSP2 and
(1 picture or pasted object on this page, not shown here)

For data set [3], the target named is T1, FOXO4 forkhead domain (FOXO4^FH) (human, UniProt P98177 86-208). In words: solution NMR structural model. The settings on record: both partners purified.
The target of data set [4] is T1, FOXO4 forkhead domain (FOXO4^FH). Description: ITC. The settings on record: both partners purified.

For “p53^TAD2: p53 transactivation subdomain 2, residues 37-57”, in data set [1], the “binding by NMR titration (CSPs)” value was “led to CSPs of ^1H,^15N cross-peaks of FOXO4^FH”.
Same read-out and setting: as for “p53^TAD1: p53 transactivation subdomain 1, residues 14-37”, the entry is “did not cause any changes”.
In the case of “CTDSP2: DNA duplex, sense CCAGATAAACAACCCG, antisense CGGGTTGTTTATCTGG”, in data set [2], the “displacement of FOXO4^FH from p53^1–94 by DNA” value is “can efficiently compete out FOXO4^FH from p53^1–94”.
Consider SQAMDDLMLSPDDIEQWFTED (peptide, UniProt P04637 37-57, looked up) [p53^TAD2 (residues 37-57), recombinant], for which the binding result in data set [3] was “binds”.

B1: p53^TAD2 (residues 37-57), synthetic peptide (peptide, UniProt P04637 37-57, looked up)
peptide: SQAMDDLMLSPDDIEQWFTED
notes: human p53, residues 37-57 (TAD2); also called unphosphorylated p53^TAD2; source: synthetic peptide, bought: Peptide Specialty Laboratories GmbH
B1: the binding result in data set [4] is on record as “binds”.
